A short description of this data set: Human clinical biocomparison study: oral absorption from grazoprevir and Formulation 3 with and without pH-raising medication. To be noted: in vivo, Treatment 2: grazoprevir and Formulation 3 with pH-raising medication, 100 mg grazoprevir/50 mg Compound I, healthy subjects. As for the experimental part:
The Formulation 2 spray dried intermediate was blended and roller compacted along with microcrystalline cellulose, lactose, croscarmellose sodium, sodium chloride, colloidal silicon dioxide, and magnesium stearate. Only half of the magnesium stearate was added prior to roller compaction. The second half of the magnesium stearate and the remaining croscarmellose sodium was added after roller compaction and the resulting powder mix was blended further.
The oral absorption obtained from grazoprevir and Formulation 3 with (Treatment 2) and without (Treatment 1) co-administration of a pH-raising medication was evaluated as part of human clinical study.

For 1 compound, Cmax results are on record in patent US20170368031A1, “SOLID DISPERSION FORMULATIONS OF ANTIVIRAL COMPOUNDS” (Merck Sharp & Dohme Corp., priority 2014, published 2017).

For `COC(=O)N[C@H](C(=O)N1CCC[C@H]1c1nc(-c2ccc3c(c2)O[C@@H](c2ccccc2)n2c-3cc3cc(-c4c[nH]c([C@@H]5CCCN5C(=O)[C@@H](NC(=O)OC)C(C)C)n4)ccc32)c[nH]1)C(C)C` [Compound I, dimethyl N,N′-([(6S)-6-phenylindolo[1,2-c][1,3]benzoxazine-3,10-diyl]bis {1H-imidazole-5,2-diyl-(2S)-pyrrolidine-2,1-diyl[(2S)-3-methyl-l-oxobutane-1,2-diyl]})dicarbamate], the concentration peaked (Cmax) at 95.5 nM.
